These results are taken from patent US20210113493A1, “KETAMINE FOR THE TREATMENT OF M[…] SYMPTOMS” (priority 2016, published 2021).

In experiment [1] the test system is subclinical menstrually related symptoms. The following applies: 50 mg lozenges, ½ to 2 once to three times daily.
For experiment [2], the system named is premenstrual dysphoric disorder (PMDD). The experiment can be described thus: Intranasal S-(+)-ketamine in subjects with PMDD. The experiment is classed as in vivo. The following applies: 30 mg per dose, 1 to 4 doses daily. The procedure:
Enantiomerically pure S-(+)-ketamine hydrochloride (eq. 150 mg/mL) and a penetration enhancer (10 mg/mL) (e.g., tauroursodeoxycholic acid) are mixed with water and the pH of the resulting mixture is adjusted with 1N NaOH to approximately pH 4.51. Subjects suffering from premenstrual dysphoric disorder (PMDD) are provided with a nasal spraying configured to deliver a dose of 0.2 ml per spray to a nostril of the subject (30 mg per dose). The subjects can administer from 1 to 4 intranasal doses daily upon the appearance of symptoms. The doses can be administered at night so as not to interfere with the functionality of the subject.

In the case of `N[C@@]1(c2ccccc2Cl)CCC[C@@H](O)C1=O`, the “anxiety, anger, and/or dysphoria” value in experiment [1] is reported as “experience a reduction in anxiety, anger, and/or dysphoria”.

Turning to `CN[C@]1(c2ccccc2Cl)CCCCC1=O` [S-(+)-ketamine], the “anxiety, anger, and/or dysphoria” value in experiment [2] is reported as “experience a reduction in anxiety, anger, and/or dysphoria”.
